Source: US10202365B2, “2-(pyridin-3-yl)-pyrimidine derivatives as RET inhibitors” (BLUEPRINT MEDICINES CORPORATION, priority 2015, dated 2019)
Like-named read-outs stand apart in the source and are kept apart here.

Chains of the proteins cited; added tags and fusions are not shown. Residues count along the entry.
UniProt P07949, 29-1114 V804L: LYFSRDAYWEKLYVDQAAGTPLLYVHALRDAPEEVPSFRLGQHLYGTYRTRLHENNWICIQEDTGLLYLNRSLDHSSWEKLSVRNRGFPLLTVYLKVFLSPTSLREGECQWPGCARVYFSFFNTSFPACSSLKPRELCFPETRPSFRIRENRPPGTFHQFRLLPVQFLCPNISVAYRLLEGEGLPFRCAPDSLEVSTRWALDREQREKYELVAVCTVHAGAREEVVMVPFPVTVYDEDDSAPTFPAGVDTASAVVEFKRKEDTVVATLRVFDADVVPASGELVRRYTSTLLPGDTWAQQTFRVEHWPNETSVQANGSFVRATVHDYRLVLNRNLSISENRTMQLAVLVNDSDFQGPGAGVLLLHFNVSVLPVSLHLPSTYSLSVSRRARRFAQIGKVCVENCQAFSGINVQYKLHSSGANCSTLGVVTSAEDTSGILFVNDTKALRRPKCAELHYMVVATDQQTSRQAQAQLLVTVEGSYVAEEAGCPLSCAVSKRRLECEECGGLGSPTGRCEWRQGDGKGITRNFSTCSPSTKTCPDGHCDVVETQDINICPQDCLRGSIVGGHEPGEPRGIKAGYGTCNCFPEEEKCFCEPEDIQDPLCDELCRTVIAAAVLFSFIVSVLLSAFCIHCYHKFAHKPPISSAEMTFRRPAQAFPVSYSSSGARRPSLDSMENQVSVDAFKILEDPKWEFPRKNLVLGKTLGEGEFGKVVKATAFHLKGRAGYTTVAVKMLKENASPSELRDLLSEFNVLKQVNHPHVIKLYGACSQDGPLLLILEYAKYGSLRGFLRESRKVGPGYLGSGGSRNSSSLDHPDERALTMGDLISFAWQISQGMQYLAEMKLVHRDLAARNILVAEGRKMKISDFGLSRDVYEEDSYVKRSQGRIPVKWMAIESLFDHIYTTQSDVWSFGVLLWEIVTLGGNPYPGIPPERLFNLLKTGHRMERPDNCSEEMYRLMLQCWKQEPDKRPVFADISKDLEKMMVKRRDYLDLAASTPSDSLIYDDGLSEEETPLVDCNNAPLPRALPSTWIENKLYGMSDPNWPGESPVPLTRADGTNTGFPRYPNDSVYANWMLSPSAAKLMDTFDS

Molecular target: RET V804L (Homo sapiens (Human), UniProt P07949, V804L)
Type: biochemical
Settings: read-out: V804L Mutant

Structure (SMILES)	IC50 (10 μM ATP, 25° C., 120 minutes) [nM]	IC50 [nM]
Cc1cc(Nc2cc(C)[nH]n2)nc(-c2ccc(C(=O)NCc3cccc(F)c3)nc2)n1 [Compound 8]	10 to 100	–
Cc1cc(Nc2cc(C)[nH]n2)nc(-c2cnc(C(=O)N[C@@H](C)c3ccc(-n4cc(F)cn4)nc3)c(C)c2)n1 [Compound 29, (S)—N-(1-(6-(4-fluoro-1H-pyrazol-1-yl)pyridin-3-yl)ethyl)-3-methyl-5-(4-methyl-6-((5-methyl-1H-pyrazol-3-yl)amino)pyrimidin-2-yl)picolinamide]	< 10	–
CC[C@@H](NC(=O)c1ccc(-c2nc(C)cc(Nc3cc(C)[nH]n3)n2)cn1)c1ccc(-n2cc(F)cn2)nc1 [Compound 34]	> 100	–
Cc1cc(Nc2cc(C)[nH]n2)nc(-c2cnc(C(=O)NCc3ccc(-n4cccn4)nc3)c(C)c2)n1 [Compound 19]	–	< 10
Cc1cc(Nc2cc(C)[nH]n2)nc(-c2ccc(C(=O)NCc3cncs3)nc2)n1 [Compound 3]	> 100	–
Cc1cc(Nc2cc(C)[nH]n2)nc(-c2ccc(C(=O)NCc3ccc(-n4ccc(C5CC5)n4)nc3)nc2)n1 [Compound 26]	< 10	–
Cc1cc(Nc2cc(C)[nH]n2)nc(-c2ccc(C(=O)NCc3ccc(-n4cc(CCO)cn4)nc3)nc2)n1 [Compound 28]	< 10	–
Cc1cc(Nc2cc(C)[nH]n2)nc(-c2ccc(C(=O)NCc3ccc(-n4cc(C5CC5)cn4)nc3)nc2)n1 [Compound 27]	> 100	–
Cc1cnn(-c2ccc(CNC(=O)c3ccc(-c4nc(C)cc(Nc5cc(C)[nH]n5)n4)cn3)cn2)c1 [Compound 18]	–	< 10
Cc1cc(Nc2cc(C)[nH]n2)nc(-c2cnc(C(=O)N[C@@H](C)c3ccc(-n4cccn4)nc3)c(C)c2)n1 [Compound 23]	< 10	–
Cc1cc(Nc2cc(C)[nH]n2)nc(-c2ccc(C(=O)NCc3cnc(-n4cc(F)cn4)cn3)nc2)n1 [Compound 21]	–	< 10
Cc1cc(Nc2cc(C)[nH]n2)nc(-c2ccc(C(=O)NCc3ccc(-n4nc(C)cc4C)nc3)nc2)n1 [Compound 24]	< 10	–
Cc1cc(Nc2cc(C)[nH]n2)nc(-c2ccc(C(=O)NCc3ccc(Cl)cc3)nc2)n1 [Compound 11]	< 10	–
Cc1cc(Nc2cc(C)[nH]n2)nc(-c2cnc(C(=O)N[C@@H](C)c3ccc(-n4cc(F)cn4)nc3)c(F)c2)n1 [Compound 30, (S)-3-fluoro-N-(1-(6-(4-fluoro-1H-pyrazol-1-yl)pyridin-3-yl)ethyl)-5-(4-methyl-6-((5-methyl-1H-pyrazol-3-yl)amino)pyrimidin-2-yl)picolinamide]	< 10	–
Cc1cc(Nc2cc(C)[nH]n2)nc(-c2ccc(C(=O)N[C@H](C)c3ccccc3)nc2)n1 [Compound 6]	10 to 100	–
